{"source": "patent US12172969B2", "about": "“Deuterated secnidazole for use in the treatment of bacterial vaginosis and methods and uses thereof” (EVOFEM BIOSCIENCES, INC., priority 2018, dated 2024)", "origin": "cited, not measured here", "conditions": "cited from earlier work"}
{"molecule": "Cc1ncc([N+](=O)[O-])n1CC(C)O", "note": "(stereo not shown) [secnidazole, 1-(2-methyl-5-nitro-1H-imidazol-1-yl) propan-2-ol]", "values": [{"measurement": "absorption after oral administration", "result": "rapidly and completely absorbed"}]}
